# AlphaSeq binding of Ab-95 light chain variants to a spike HR2 peptide

Binding partner: SARS-CoV-2 spike HR2 peptide, sequence PDVDLGDISGINAS.

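The starting antibody came from a phage panning campaign against this peptide. Library AAYL52 holds single substitutions and randomly drawn double and triple substitutions in the CDRs. The scFvs were displayed on barcoded MATa yeast, the peptide on MATalpha yeast. Binding brings cells together so that they mate, and sequencing counts the barcode pairs among the diploids. Each replicate has its own calibration line, from reference interactions of the BCL2 family. Mating was done three times.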

Each scFv is VH, three GGGGS repeats, VL, as in the parent Ab-95, and differs from it in the CDRs of the light chain only.
VH: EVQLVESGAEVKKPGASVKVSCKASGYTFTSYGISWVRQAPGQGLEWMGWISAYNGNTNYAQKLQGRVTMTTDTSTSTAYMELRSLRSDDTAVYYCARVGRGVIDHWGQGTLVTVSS
VL: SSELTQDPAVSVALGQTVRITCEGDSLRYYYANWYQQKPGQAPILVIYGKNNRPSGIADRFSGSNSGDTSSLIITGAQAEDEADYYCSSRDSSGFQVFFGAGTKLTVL

Each variant is given by its three light chain CDRs, as the data file delimits them; those of the parent are EGDSLRYYYAN, GKNNRPS, SSRDSSGFQVF.
All variants listed here change N51 of the VL, counted from its first residue.
The read-out is the apparent dissociation constant on a log10 scale (nM): the lower, the stronger.
Averages over replicates are reported, and they cover detected replicates only.
"nd" marks a missing value. The strain was present, yet no cells mated with the target were sequenced in that replicate, which points to weak or no binding.
The list is sorted by this average, lowest first, undetected variants last.

The variant EGDSLRYYQAN / GKGNRPS / SSRDSSVFQVF gave 1.80, 1.74, 1.31 (mean 1.62; controls 3 of 9).
The variant EGDSLRYYYAN / GKDSRPS / SSRDSSGFQVF gave 1.75, 1.92, 1.63 (mean 1.77; controls 5 of 9).
The variant EGDSLRYYYAN / GKQNRPS / SSRDSSGFQNF gave 2.37, 2.41, 1.83 (mean 2.20; controls 3 of 9).
The variant EGDSLRYYEAN / GKTNRPS / SSRDSNGFQVF gave 2.51, 2.53, 2.11 (mean 2.38; controls 5 of 9).
The variant EGDSLRQTYAN / GKVNRPS / SSRDSSGFQVF gave 2.38, 2.66, 2.26 (mean 2.43; controls 4 of 9).
The variant HGDSLRYYYAN / GKSNRPS / STRDSSGFQVF gave 2.75, 2.44, 2.13 (mean 2.44; controls 2 of 9).
The variant EGDSLRWYYAN / GGYNRPS / SSRDSSGFQVF gave 2.76, 2.50, 2.12 (mean 2.46; controls 4 of 9).
The variant EGDSLRYYYAN / GKGTRPS / SSRDSSGVQVF gave 2.59, 2.72, 2.19 (mean 2.50; controls 3 of 9).
The variant EGQSLRYYYAN / GKANRPS / NSRDSSGFQVF gave 3.41, 2.84, 2.19 (mean 2.81; controls 6 of 9).
The variant EGDSLRYYQAN / GKRNRPS / SSRDSSGFQDF gave 3.04, nd, 3.07 (mean 3.05; controls 1 of 9).
The variant EGDSLRYYAAN / GKLNRPS / SSRDSSGGQVF gave 3.09, nd, nd (controls 1 of 9).
The variant EGSSLRYYYAN / GKTNRPS / STRDSSGFQVF gave 3.05, 3.19, nd (mean 3.12; controls 2 of 9).
The variant EGCSLRYYYAN / GKGNRPS / SSRDSSGFQVF gave nd, 3.10, 3.25 (mean 3.17; controls 4 of 9).
The variant EGDSLRQYYAN / GKQNRPS / SSLDSSGFQVF gave nd, 3.27, 3.35 (mean 3.31; controls 0 of 9).
The variant EGHSLRYYYAN / GKENRPS / SSRDSSGFQMF gave 2.74, 3.63, 3.74 (mean 3.37; controls 3 of 9).
The variant EGDSLRYYYAN / GKQNRSS / SSWDSSGFQVF gave 3.38, 3.50, nd (mean 3.44; controls 5 of 9).
The variant EGESLRYYYKN / GKMNRPS / SSRDSSGFQVF gave 3.56, nd, nd (controls 3 of 9).
The variant EVDSLRYYYAN / GKWNRKS / SSRDSSGFQVF gave nd, nd, 3.58 (controls 2 of 9).
The variant EGDSLRYYYAT / GKINRPS / SSRDSSGFQVF gave 3.76, 3.43, nd (mean 3.60; controls 5 of 9).
The variant EGDSLHYYYAN / GKQNRPS / SPRDSSGFQVF gave nd, 4.00, 3.41 (mean 3.71; controls 2 of 9).
The variant EGDSLRYYYAN / GQTNRPS / SSRDGSGFQVF gave 3.50, 4.06, nd (mean 3.78; controls 2 of 9).
The variant EGDSLFYYYMN / GKVNRPS / SSRDSSGFQVF gave 3.93, 3.65, nd (mean 3.79; controls 1 of 9).
The variant EGDSLRYYYAN / GKHNRVS / SSRDSSGFQVF gave 3.97, 3.71, 3.71 (mean 3.80; controls 3 of 9).
The variant EGDSLRYYYAN / GKRNEPS / SSRDSSCFQVF gave 3.36, 3.93, 4.16 (mean 3.82; controls 5 of 9).
The variant EGDSLRYYYAN / GVKNRPS / SSRDSSGFQVF gave 4.03, 3.63, nd (mean 3.83; controls 3 of 9).
The variant ETDSLRYYYAN / GKLNRPS / SSRDSSGFCVF gave nd, 3.84, nd (controls 4 of 9).
The variant EGDSLRYYYAN / GKINRCS / SSRDSSGGQVF gave 4.02, nd, nd (controls 4 of 9).
The variant EGDSLRYYYAF / GKSQRPS / SSRDSSGFQVF gave 3.87, 4.20, nd (mean 4.04; controls 3 of 9).
The variant LGDSLRYYYAN / GQRNRPS / SSRDSSGFQVF gave 3.95, 3.83, 4.56 (mean 4.11; controls 2 of 9).
The variant EGDSLRYYYAN / GKQNRPS / SSRDSSGFGVA gave 4.14, 4.10, nd (mean 4.12; controls 4 of 9).
The variant EGDSLRYYYIN / GKGNRPS / YSRDSSGFQVF gave 3.54, 4.83, nd (mean 4.19; controls 2 of 9).
The variant EGDSLHTYYAN / GKLNRPS / SSRDSSGFQVF gave nd, nd, 4.19 (controls 2 of 9).
The variant CGDSLRYYYAN / LKPNRPS / SSRDSSGFQVF gave nd, nd, 4.37 (controls 4 of 9).
The variant EGDSLRYYYAN / GKSNRPS / SSGDSSGFQWF gave nd, 4.75, nd (controls 3 of 9).
The variant EGDSLRYYYAN / GKPNSPS / SSRESSGFQVF gave 5.60, 4.64, nd (mean 5.12; controls 3 of 9).
The variant EMDSLRYYYAN / GKCNRPS / SSRDSSGRQVF gave nd, 5.56, nd (controls 3 of 9).
The variant EGDSLRYYYAN / GKVNRPS / SQWDSSGFQVF gave nd, 5.87, nd (controls 1 of 9).
The variant EGDSLRYYYAN / GKCNRPS / SILDSSGFQVF gave nd, nd, nd (controls 0 of 9).
The variant EGDSLRYYYAN / GKCVRPS / CSRDSSGFQVF gave nd, nd, nd (controls 5 of 9).
The variant EGDSPRYYYCN / GKINRPS / SSRDSSGFQVF gave nd, nd, nd (controls 1 of 9).
The variant EGDSLRYYYAN / GNINRPS / SDRDSSGFQVF gave nd, nd, nd (controls 1 of 9).
The variant EGDSLRYYYAD / GKQNRPS / SSRDSWGFQVF gave nd, nd, nd (controls 2 of 9).
The variant EGDKLRYYYAN / GKWNRLS / SSRDSSGFQVF gave nd, nd, nd (controls 2 of 9).

Repeated from above, the 4 best binders with a signal in all replicates:

EGDSLRYYQAN / GKGNRPS / SSRDSSVFQVF: 1.80, 1.74, 1.31 (mean 1.62; controls 3 of 9).
EGDSLRYYYAN / GKDSRPS / SSRDSSGFQVF: 1.75, 1.92, 1.63 (mean 1.77; controls 5 of 9).
EGDSLRYYYAN / GKQNRPS / SSRDSSGFQNF: 2.37, 2.41, 1.83 (mean 2.20; controls 3 of 9).
EGDSLRYYEAN / GKTNRPS / SSRDSNGFQVF: 2.51, 2.53, 2.11 (mean 2.38; controls 5 of 9).

Empty control strains, which show no peptide, gave a signal in 28% of pairings with library AAYL52; the median was 3.91 and 95% of these signals were weaker than 2.90. No background was subtracted. The control count says in how many pairings with the empty strains this scFv gave a signal.

Data: MIT Lincoln Laboratory AlphaSeq set, Engelhart et al. 2022, doi:10.1038/s41597-022-01779-4, as distributed in FLAb.